Laboratory results taken from patent US20040024005A1, “Methods and compositions for reducing the development of drug tolerance and/or physical dependence” (The Regents of the University of California, priority 2002, published 2004).

Tested on: HA-D MOR (MOR chimera with delta opioid receptor cytoplasmic tail)

CN1CC[C@]23c4c5ccc(O)c4O[C@H]2[C@@H](O)C=C[C@H]3[C@H]1C5 [morphine, (5α,6α)-7,8-didehydro-4,5-epoxy-17-methylmorphinan-3,6-diol]
D MOR endocytosis: efficiently internalized
